Patent US20040186117A1, “Marker” (priority 2001, published 2004)

What was measured:
[1] = tested on: ERK1/2 phosphorylation in HT29 cells; assay: Western blotting for phospho-ERK1/2 in HT29 cells; format: cell-based, human; settings: HT29, 24 h exposure
[2] = tested on: RB phosphorylation (Ser780) in KM12 cells; settings: for concentration causing loss/reduction of RB phosphorylation (Ser780): asynchronous KM12, 24 h exposure
[3] = tested on: c-FOS protein in HT29 cells; settings: HT29, 24 h exposure
[4] = tested on: RB phosphorylation (Ser780, Ser608) in HT29 cells; assay: Western blotting for RB phosphorylation in HT29 cells; settings: for concentration causing loss/reduction of RB phosphorylation (Ser780; Ser608): asynchronous HT29, 24 h exposure

Structure (SMILES)	concentration giving an increase in ERK phosphorylation [1] [µM]	concentration causing loss/reduction of RB phosphorylation (Ser780) [2] [µM]	concentration giving an increase in c-FOS protein [3] [µM]	concentration causing loss/reduction of RB phosphorylation (Ser780; Ser608) [4] [µM]	concentration giving a small reduction in phosphorylation at Ser780 ([2]; KM12, 24 h exposure) [µM]	concentration giving full inhibition of RB phosphorylation at Ser608 and Ser780 ([4]; HT29, 24 h exposure) [µM]
CC[C@H](CO)Nc1nc(NCc2ccccc2)c2ncn(C(C)C)c2n1 [R-roscovitine, 2-(R)-(1-ethyl-2-hydroxyethylamino)-6-benzylamino-9-isopropylpurine]	≥ 50	≥ 20	≥ 50	≥ 20	–	–
CC[C@H](CO)Nc1nc(NCc2ccccc2)c2ncn(C(C)C)c2n1 (racemic) [roscovitine]	–	≥ 20	–	20	10	≥ 50
